{"source": "patent US11926624B2", "about": "“Synthesis of coelenterazine synthesis intermediate” (INTERNATIONAL PAPER COMPANY, priority 2018, dated 2024)", "origin": "cited, not measured here", "target": "T1, Renilla Luciferase (Renilla reniformis, UniProt P27652)", "T1 sequence (P27652 1-311)": "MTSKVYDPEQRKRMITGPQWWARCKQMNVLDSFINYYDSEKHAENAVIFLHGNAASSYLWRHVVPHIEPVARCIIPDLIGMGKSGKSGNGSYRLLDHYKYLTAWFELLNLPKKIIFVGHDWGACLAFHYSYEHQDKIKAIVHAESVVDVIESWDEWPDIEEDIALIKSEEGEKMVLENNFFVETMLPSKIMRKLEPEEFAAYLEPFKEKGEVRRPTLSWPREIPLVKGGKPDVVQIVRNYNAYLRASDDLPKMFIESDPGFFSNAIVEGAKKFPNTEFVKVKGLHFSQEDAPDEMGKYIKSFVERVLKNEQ", "conditions": "with Renilla Luciferase; luminescent intensity as % initial intensity"}
{"smiles": "O=c1c(Cc2ccc(O)cc2)nc2c(CC3CCCC3)[nH]c(-c3ccc(O)cc3)cn1-2", "note": "[coelenterazine cp]", "values": [{"measurement": "Initial Intensity", "result": 135, "unit": "%"}]}
